# Laboratory results taken from patent publication US9730915B2, “Method for preventing or treating diseases associated with a reduced density of interferon receptors” (OBSCHESTVO S OGRANICHENNOI OTVETSTVENNOSTIYU …, priority 2013, dated 2017).
# System: protein MxA
# Experiment: Cell sensitivity to interferon: MxA protein immunoblot in A-549 cells
# Assay type: cell-based
# Settings: interferon alone at 1 IU (line 4, FIG. 3)
# Text: An increase in the density of interferon receptors on a cell surface must result in an increased sensitivity of cells to weak signals of endogenous interferon under conditions when its signaling is suppressed by a viral infection. […] Cell lysates were undergone to the procedure of immunoblot analysis (western blotting) by using monoclonal antibodies against to protein MxA (sc-50509, Santa Cruz Biotechnology) to stain membranes by a chemiluminescence method using a substrate (chemiluminescent reagent SUPER SIGNAL® West Femto Chemiluminescent Substrate (Thermo Fisher Scientific)). The protein MxA was selected as an indicator product that is indicative of the expression of interferon-stimulated genes (ISGs) when the cells are treated with interferon.
substance,measurement,value
"Interferon: interferon-alpha (IFNα: ROFERON-A3®, Roche Molecular Biochemicals, Mannheim)",synthesis of MxA protein,did not induce the synthesis
